Only a part is listed here, and it is no random draw. Active and inactive are the calls of the source.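 The calls were made as follows: active = inhibition of at least 50% at 8 µM in the primary screen; inactive = the rest.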

By UniProt entry, the sequences of proteins in these tests, tags left out. Where a name states a change or a piece, a line headed by the entry shows the natural chain unless it says otherwise.
UniProt O15151: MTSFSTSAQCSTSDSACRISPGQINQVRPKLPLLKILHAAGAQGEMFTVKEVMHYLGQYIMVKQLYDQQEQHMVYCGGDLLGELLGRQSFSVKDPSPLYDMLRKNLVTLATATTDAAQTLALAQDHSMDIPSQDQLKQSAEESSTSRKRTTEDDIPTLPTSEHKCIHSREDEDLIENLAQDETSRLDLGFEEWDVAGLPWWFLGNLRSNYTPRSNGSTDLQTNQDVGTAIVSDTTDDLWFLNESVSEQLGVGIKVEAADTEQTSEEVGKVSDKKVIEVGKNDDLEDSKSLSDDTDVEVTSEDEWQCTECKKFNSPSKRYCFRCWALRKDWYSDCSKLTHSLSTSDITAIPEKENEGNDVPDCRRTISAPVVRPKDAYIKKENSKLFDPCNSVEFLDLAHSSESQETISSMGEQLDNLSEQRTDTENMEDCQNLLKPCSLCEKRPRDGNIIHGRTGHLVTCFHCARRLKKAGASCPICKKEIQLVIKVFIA
UniProt Q00987, whole entry, looked up: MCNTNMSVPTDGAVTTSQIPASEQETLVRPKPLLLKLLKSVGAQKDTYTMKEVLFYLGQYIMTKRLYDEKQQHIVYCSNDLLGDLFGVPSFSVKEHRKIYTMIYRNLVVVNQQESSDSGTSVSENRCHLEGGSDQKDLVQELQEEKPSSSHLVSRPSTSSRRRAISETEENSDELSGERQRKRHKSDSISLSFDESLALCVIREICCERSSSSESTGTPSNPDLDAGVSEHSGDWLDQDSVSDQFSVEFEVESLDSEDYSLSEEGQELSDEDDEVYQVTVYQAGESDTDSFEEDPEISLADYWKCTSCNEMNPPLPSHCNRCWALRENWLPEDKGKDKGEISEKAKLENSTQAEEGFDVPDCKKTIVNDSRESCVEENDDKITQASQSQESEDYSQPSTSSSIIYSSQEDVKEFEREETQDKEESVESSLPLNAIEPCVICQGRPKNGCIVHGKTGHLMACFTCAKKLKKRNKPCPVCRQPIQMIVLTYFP

Broadly, the inhibition is the relative decrease from the control value, in per cent.

The target in this test is Protein Mdm4 (Homo sapiens) + E3 ubiquitin-protein ligase Mdm2 (Homo sapiens) (UniProt O15151+Q00987). Put plainly: disruptors of Mdm2/MdmX RING complex – cell-based, luminescence, split luciferase, SaOS-2, uHTS, primary screen (AID 485346). The note with it: SaOS-2 split-luciferase Mdm2/MdmX complementation, at 8 µM, stronger effect = higher value.
For the molecule `O=[N+]([O-])c1ncn(CCn2cnc([N+](=O)[O-])n2)n1`, the inhibition is inactive: -29.4%. Under `C[C@H]1OP(=O)(Oc2ccccc2)[C@H](O)[C@H](O)[C@H]1N=[N+]=[N-]` (stereo not given in full) stands inactive: 13.2%; under `O=P(Nc1nc2ccccc2s1)(c1ccccc1)c1ccccc1`, inactive: -0.597%; under `CN(C)C1(CNC(=O)c2ccc(Cl)c(S(N)(=O)=O)c2)CCCCC1`, inactive: -16.2%. Regarding `O=P(Nc1ccccn1)(c1ccc(Br)cc1)c1ccc(Br)cc1`, the inhibition is inactive: -12.5%. Then `c1nnnn1CCn1cnnn1`, with inactive: 6.05%; and `O=P(Nc1nccs1)(c1ccccc1)c1ccccc1`, with inactive: -5.78%. For the molecule `CC(C)C(=O)NC(Sc1ccccc1)C(Cl)(Cl)Cl` (stereo not given), the inhibition is inactive: 10.3%. As for `CC1CCN(C(=O)Oc2c(Cl)cc(Cl)c3cccnc23)CC1`, the inhibition was inactive: 18.1%. Under `CN(C)C(=O)OCCc1n(C)cc[n+]1C` stands inactive: 12.5%. `CC(C)=N/N=C(\N)N[N+](=O)[O-]`: the inhibition is inactive: 5.2%. Take `CCN(/C(=N/P(=O)(N1CCOCC1)N1CCOCC1)N1CCOCC1)c1ccc(OC)cc1`: the inhibition was inactive: 15.9%. Take `C[N+]1=C2C=CC=CC=C2SC12C([N+](=O)[O-])=CC([N+](=O)[O-])=C[C-]2[N+](=O)[O-]` (stereo not given): the inhibition was active: 97.6%.

`Nc1ccc([As](=O)(O)c2ccc(N)cc2)cc1`: the inhibition was inactive: 7.93%. Take `O=[N+]([O-])c1cc([N+](=O)[O-])c(CCNc2ccccc2)c([N+](=O)[O-])c1`: the inhibition is inactive: 33.7%.

Turning to `CCc1nc2c(n1)c1c(non1O)c1c2no[n+]1[O-]`, the inhibition was inactive: 38%. In the case of `Cc1ccc(NP(=O)(Oc2ccccc2)Oc2ccccc2)nc1`, the inhibition is inactive: -7.23%. Under `CC(=O)N1C2C3N(C(C)=O)C1C1N(C(C)=O)C(C(N1C(C)=O)N3C(C)=O)N2C(C)=O` stands inactive: -19.7%. Take `O=[N+]([O-])c1cccc2n[nH]nc12`: the inhibition was inactive: 22.6%. For the molecule `COc1ccc(C2=NCC(CBr)S2)cc1` (stereo not given), the inhibition was inactive: -5.96%. Regarding `O=[N+]([O-])c1cccc(NC2=NCC(CBr)S2)c1` (stereo not given), the inhibition was inactive: 25%. Consider `O=[N+]([O-])c1ncn(CCn2ncnc2[N+](=O)[O-])n1`, for which the inhibition was inactive: 12.7%. Turning to `CC(C)(C)C(=O)NC(Sc1ccncn1)C(Cl)(Cl)Cl` (stereo not given), the inhibition was inactive: 11.1%.

On to `O=C(Nc1cc([As](=O)(O)O)ccc1O)c1ccccc1`, for which the inhibition was inactive: 13.8%. Take `CCN(N=Nc1nonc1N)c1nonc1N`: the inhibition is inactive: -14.9%. Consider `O=[N+]([O-])c1cc([N+](=O)[O-])c(CCN2CCOCC2)c([N+](=O)[O-])c1`, for which the inhibition was inactive: 8.17%.

On to `CN(C(=O)Cc1ccc(Cl)c(Cl)c1)[C@H]1CCCC[C@@H]1N1CCCC1`, for which the inhibition was inactive: -5.6%.

Consider `Cc1ccc(NP(=O)(Oc2ccccc2F)Oc2ccccc2F)nc1`, for which the inhibition was inactive: -11.3%. In the case of `Cc1cc(SC(NC(=O)c2ccc(F)cc2)C(Cl)(Cl)Cl)ncn1` (stereo not given), the inhibition is inactive: -0.607%. On to `CCOP(=O)(Nc1ccccc1)OCC`, for which the inhibition is inactive: -11.7%. With `O=P(Nc1nc2ccc(Cl)cc2s1)(c1ccccc1)c1ccccc1`, the inhibition was inactive: 17.2%. Under `CC(=O)Nc1ccc([As](=O)(O)O)cc1` stands inactive: -28.4%; under `O=C(O)c1ccccc1[As](=O)(O)O`, inactive: 14.1%; under `O=C(NC(Sc1ccncn1)C(Cl)(Cl)Cl)c1ccccc1` (stereo not given), inactive: 24.6%. Turning to `Cc1c2non([O-])c-2c(C)[n+](=O)[n+]1[O-]`, the inhibition is inactive: 14.2%. Take `Oc1ccccc1CNc1ccccn1`: the inhibition was inactive: 13.6%. In the case of `Nc1cc(N)c2nonc2c1[N+](=O)[O-]`, the inhibition was inactive: 19.9%. With `CC(C)CC(=O)NC(Sc1ccc(Cl)cc1)C(Cl)(Cl)Cl` (stereo not given), the inhibition is inactive: -23.1%. As to `CN1CCCC(OC(=O)C(c2ccccc2)c2ccccc2)C1` (stereo not given), the inhibition was inactive: -10.9%. Then `Clc1ccc(Cl)c(NC2=NCC(CBr)S2)c1` (stereo not given), with inactive: -1.25%; and `Cc1ccc(OP(=O)(Nc2nccs2)Oc2ccc(C)cc2)cc1`, with inactive: 11.8%. Regarding `COc1ccccc1OP(=O)(Nc1ccc(C)cn1)Oc1ccccc1OC`, the inhibition is inactive: 27.1%. Consider `Cc1ccc(N/C(=N/P(=O)(N2CCOCC2)N2CCOCC2)N2CCOCC2)cc1`, for which the inhibition was inactive: 20.5%. With `CN(C(=O)Cc1ccc(Cl)c(Cl)c1)[C@H]1CCCC[C@H]1N1CCCC1`, the inhibition was inactive: 17.1%. As to `NC(=O)c1cc([N+](=O)[O-])cc([N+](=O)[O-])c1N`, the inhibition is inactive: 13.7%.

For the origin of these results see PubChem BioAssay AID485346 (Sanford-Burnham Center for Chemical Genomics, 2010).
